Measured affinities in a library of Ab-14 light chain variants

Target peptide (SARS-CoV-2 spike, HR2 region): PDVDLGDISGINAS

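The variants were designed computationally from a first round of random CDR variants and then made and measured. Several design methods are mixed in this list. In AlphaSeq, yeast of one mating type display the scFv and yeast of the other type display the target. Pairs that bind mate more often; barcode pairs of the diploids are counted by sequencing. Read counts were normalised to the haploid input and turned into Kd by a linear fit to BCL2-family pairs of known affinity, for each replicate. There are six technical replicates.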

Each scFv is VH, the linker GGGGSGGGGSGGGGS, VL, as in the parent Ab-14, and differs from it in the CDRs of the light chain only.
VH: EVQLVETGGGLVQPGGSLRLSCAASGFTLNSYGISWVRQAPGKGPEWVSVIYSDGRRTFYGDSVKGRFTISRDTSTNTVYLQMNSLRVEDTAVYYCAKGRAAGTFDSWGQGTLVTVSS
VL: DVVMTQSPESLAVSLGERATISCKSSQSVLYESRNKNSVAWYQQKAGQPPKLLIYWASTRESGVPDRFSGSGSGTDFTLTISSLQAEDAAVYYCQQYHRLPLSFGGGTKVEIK

The whole VL of each variant is written out. Values are apparent Kd, the geometric mean of the replicates that gave a signal; lower means stronger binding. A pair that was not seen in any replicate is written "not detected"; this usually means weak binding, but a binder can also be missed. A sequence that the file lists under several names has all its replicates pooled.

VL,apparent Kd,seen in
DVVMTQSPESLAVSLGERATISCKVWPSELGLERNKNSVAWYQQKAGQPPKLLIYQASTRESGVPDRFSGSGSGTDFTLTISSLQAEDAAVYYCQQYHRLPLSFGGGTKVEIK,420 pM,6 of 6
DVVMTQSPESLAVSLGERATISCCSSQSVLYESRNKNSVAWYQQKAGQPPKLLIYWASTREVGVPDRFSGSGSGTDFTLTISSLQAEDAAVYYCQQYHRLPLSFGGGTKVEIK,not detected,0 of 6
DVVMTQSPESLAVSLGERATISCRLTEHTSERAYADASVAWYQQKAGQPPKLLIYEASTRNDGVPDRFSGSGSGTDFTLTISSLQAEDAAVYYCQQYHRLPLFFGGGTKVEIK,650 pM,6 of 6
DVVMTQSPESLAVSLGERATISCKISQSPLYESRNKNSVAWYQQKAGQPPKLLIYWASTRESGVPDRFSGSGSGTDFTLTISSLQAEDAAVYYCQQHHRLPYSFGGGTKVEIK,850 nM,2 of 6
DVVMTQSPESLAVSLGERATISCKLQGSVGYESRNKNSVAWYQQKAGQPPKLLIYGASQREDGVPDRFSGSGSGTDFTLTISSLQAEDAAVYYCQQYHRLPLSFGGGTKVEIK,580 pM,6 of 6
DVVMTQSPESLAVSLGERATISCKSSQSVTYCSHNKNSVAWYQQKAGQPPKLLIYEASTRESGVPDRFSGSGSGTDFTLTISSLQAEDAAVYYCQQYHRLPLSFGGGTKVEIK,5.1 nM,6 of 6
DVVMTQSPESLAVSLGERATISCKLVQSVLYESRNKNSVAWYQQKAGQPPKLLIYNASTRLSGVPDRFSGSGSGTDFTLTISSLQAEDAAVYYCQQYHRLPLSFGGGTKVEIK,950 pM,6 of 6
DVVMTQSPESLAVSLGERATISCKSSQSVLYELRNKNSVAWYQQKAGQPPKLLIYGASARESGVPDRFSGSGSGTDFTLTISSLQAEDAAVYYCQQYHRLPLSFGGGTKVEIK,9.6 nM,6 of 6
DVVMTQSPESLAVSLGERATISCKVSQSNGYESRMFNSVAWYQQKAGQPPKLLIYNASQRESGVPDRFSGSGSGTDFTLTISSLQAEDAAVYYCQQYHRLPLSFGGGTKVEIK,580 pM,6 of 6
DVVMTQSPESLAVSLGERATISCKITATMRFEQKASNNIAWYQQKAGQPPKLLIYEVTTRSKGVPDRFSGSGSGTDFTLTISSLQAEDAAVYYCQQYYRLPLAFGGGTKVEIK,13 nM,6 of 6
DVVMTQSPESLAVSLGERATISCKFGPMVLYESRNKNSVAWYQQKAGQPPKLLIYGWSTRESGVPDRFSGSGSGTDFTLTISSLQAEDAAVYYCQQYHRLPLSFGGGTKVEIK,not detected,0 of 6
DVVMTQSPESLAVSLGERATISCKISQSVLMESRNKNSVAWYQQKAGQPPKLLIYEASTRESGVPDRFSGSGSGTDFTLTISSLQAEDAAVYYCQQYHRLPLSFGGGTKVEIK,580 pM,6 of 6
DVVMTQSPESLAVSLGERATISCKLSVSYLFEQLEKNSIAWYQQKAGQPPKLLIYENSTREKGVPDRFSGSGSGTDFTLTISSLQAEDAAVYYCQHYHRLPLSFGGGTKVEIK,630 nM,4 of 6
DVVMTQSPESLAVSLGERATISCKSSQSVLYESRNKNSVAWYQQKAGQPPKLLIYWASTREHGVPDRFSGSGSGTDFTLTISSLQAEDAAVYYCQQYHRMPLSFGGGTKVEIK,not detected,0 of 6
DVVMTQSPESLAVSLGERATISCKFVQSVLYESRTKNSVAWYQQKAGQPPKLLIYNASTRESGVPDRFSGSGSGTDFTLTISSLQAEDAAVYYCQQYHRLPLHFGGGTKVEIK,600 pM,6 of 6
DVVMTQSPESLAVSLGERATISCMMLYGDNSVGAQKDSIAWYQQKAGQPPKLLIYEAEQVMEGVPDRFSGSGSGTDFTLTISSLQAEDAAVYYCQHYFRLPLVFGGGTKVEIK,13 nM,2 of 6
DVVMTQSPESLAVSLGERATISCKSSQSVLYESRNKNSVAWYQQKAGQPPKLLIYEASTREDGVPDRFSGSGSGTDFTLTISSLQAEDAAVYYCQQYHRLPLSFGGGTKVEIK,4.8 nM,12 of 12
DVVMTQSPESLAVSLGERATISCHSSPSVLYESRNKNNVAWYQQKAGQPPKLLIYDASTRESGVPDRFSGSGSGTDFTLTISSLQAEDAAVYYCQQYHRLPLSFGGGTKVEIK,380 pM,6 of 6
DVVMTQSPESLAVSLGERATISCKSSYSVLYESRNKNSVAWYQQKAGQPPKLLIYWASTRESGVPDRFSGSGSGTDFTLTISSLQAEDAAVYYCQQYHRLPLSFGGGTKVEIK,530 nM,3 of 6

Repeated from above, the 3 best binders with a signal in all replicates:

VL	apparent Kd	seen in
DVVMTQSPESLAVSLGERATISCHSSPSVLYESRNKNNVAWYQQKAGQPPKLLIYDASTRESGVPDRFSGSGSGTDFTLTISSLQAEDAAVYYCQQYHRLPLSFGGGTKVEIK	380 pM	6 of 6
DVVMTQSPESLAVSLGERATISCKVWPSELGLERNKNSVAWYQQKAGQPPKLLIYQASTRESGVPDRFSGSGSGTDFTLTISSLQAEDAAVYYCQQYHRLPLSFGGGTKVEIK	420 pM	6 of 6
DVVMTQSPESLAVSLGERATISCKVSQSNGYESRMFNSVAWYQQKAGQPPKLLIYNASQRESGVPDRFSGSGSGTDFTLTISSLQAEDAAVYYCQQYHRLPLSFGGGTKVEIK	580 pM	6 of 6

Values of this round are not directly comparable with the first-round values of the same sequences. Three control strains display no target. For all light chain designs, 4% of the pairings with them gave a signal, with a median of 430 nM and one signal in twenty below 38 nM, so weak values seen in few replicates may be background. The authors averaged sequences with at least three values out of six and counted those with two or fewer as poor binders.

Values reported by Li et al. 2023, doi:10.1038/s41467-023-39022-2 (FLAb copy).